Target: cathepsin K (Homo sapiens, UniProt P43235)
Experiment: Cathepsin K inhibitory activity (fluorescent substrate Z-Leu-Arg-MCA)
Settings: enzyme expressed in HEK293T; 15 min preincubation, 30 min reaction at room temperature, pH 5.5
Experimental: Cathepsin K inhibitory activities of the compounds synthesized according to the methods of the above examples were measured.
Cathepsin K used for evaluation of inhibitory activity was transiently expressed in an animal cell HEK293T (made by GenHunter Corporation) and the active enzyme was obtained as the enzyme fraction by using detergent containing lysis buffer.
The enzyme solution A was prepared at 2.1 times final concentration by diluting the enzyme fraction with assay buffer (50 mM sodium acetate, 50 mM sodium chloride, 2 mM DTT, pH 5.5). The test compound solutions B were prepared at 50 times final target concentrations by dimethylsulfoxide (DMSO). […]
To the enzyme solution A (38.4 μL) were added the test compound solutions B (1.6 μL) and mixed individually. […] The fluorescence intensities of the enzyme reaction solutions were measured at excitation wavelength of 355 nm and measurement wavelength of 460 nm and the enzyme activities were calculated from these fluorescence intensities caused by 7-amino-4-methylcoumarine released. The enzyme activity with using DMSO instead of the test compound solution B was taken as 100% and the inhibitory rates at each concentration of the test compound were calculated. […] The 50% inhibitory concentration against cathepsin K was calculated from this curve. […]

Protein sequences, listed by entry. Tags and fused reporters are not part of them. Residues count along the entry.
UniProt P43235, 115-329 limits assumed: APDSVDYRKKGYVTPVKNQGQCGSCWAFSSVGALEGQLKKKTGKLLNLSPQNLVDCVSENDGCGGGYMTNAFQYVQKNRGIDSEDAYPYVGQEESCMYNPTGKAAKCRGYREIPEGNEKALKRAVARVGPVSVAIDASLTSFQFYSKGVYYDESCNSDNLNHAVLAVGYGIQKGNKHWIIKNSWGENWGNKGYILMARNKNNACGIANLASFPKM

| Compound | Activity Intensity (cathepsin K inhibitory activity, pIC50 class) |
| --- | --- |
| CC[C@@H](CNc1ccc(OC)cc1OC)NC(=O)[C@H](CC(C)C)N[C@@H](c1ccc(OC)cc1OC)C(F)(F)F | ++ (7.5≦pIC50<8.5: ++) |
| CC[C@@H](CNc1ccc(OCC(=O)O)cc1OC)NC(=O)[C@H](CC(C)C)N[C@@H](c1ccc(S(C)(=O)=O)cc1)C(F)(F)F | +++ (8.5≦pIC50: +++) |

From patent US20090291945A1, “CYSTEINE PROTEASE INHIBITORS” (Teijin Pharma Limited, priority 2008, published 2009)
